What follows are molecules tested against soluble human BACE1 catalytic domain (Homo sapiens (Human), UniProt P56817) (assay: BACE1 HTRF FRET Assay). Conditions: read-out: BACE 1 Ki; Ki calculated from IC50 using the Cheng-Prusoff equation; QSY7-APPswe-Eu substrate, pH 5.0.
Text: Na^+-Acetate pH 5.0; 1% Brij-35; Glycerol; Dimethyl Sulfoxide (DMSO); Recombinant human soluble BACE1 catalytic domain (>95% pure); APP Swedish mutant peptide substrate (QSY7-APP^swe-Eu): QSY7-EISEVNLDAEFC-Europium-amide.
A homogeneous time-resolved FRET assay can be used to determine IC50 values for inhibitors of the soluble human BACE1 catalytic domain. This assay monitors the increase of 620 nm fluorescence that resulted from BACE1 cleavage of an APPswedish APP^swe mutant peptide FRET substrate (QSY7-EISEVNLDAEFC-Europium-amide). This substrate contains an N-terminal QSY7 moiety that serves as a quencher of the C-terminal Europium fluorophore (620 nm Em). In the absence of enzyme activity, 620 nm fluorescence is low in the assay and increased linearly over 3 hours in the presence of uninhibited BACE1 enzyme Inhibition of BACE1 cleavage of the QSY7-APP^swe-Eu substrate by inhibitors is manifested as a suppression of 620 nm fluorescence.
Varying concentrations of inhibitors at 3× the final desired concentration in a volume of 10 ul are preincubated with purified human BACE1 catalytic domain (3 nM in 10 μl) for 30 minutes at 30° C. in reaction buffer containing 20 mM Na-Acetate pH 5.0, 10% glycerol, 0.1% Brij-35 and 7.5% DSMO. Reactions are initiated by addition of 10 μl of 600 nM QSY7-APP^swe-Eu substrate (200 nM final) to give a final reaction volume of 30 μl in a 384 well Nunc HTRF plate. The reactions are incubated at 30° C. for 1.5 hours. The 620 nm fluorescence is then read on a Rubystar HTRF plate reader (BMG Labtechnologies) using a 50 millisecond delay followed by a 400 millisecond acquisition time window Inhibitor IC50 values are derived from non-linear regression analysis of concentration response curves. Ki values are then calculated from IC50 values using the Cheng-Prusoff equation using a previously determined […] of 8 μM for the QSY7-APP^swe-Eu substrate at BACE1.

Protein sequences, listed by entry. Tags and fused reporters are not part of them. Residues count along the entry.
UniProt P56817, 75-416 limits assumed: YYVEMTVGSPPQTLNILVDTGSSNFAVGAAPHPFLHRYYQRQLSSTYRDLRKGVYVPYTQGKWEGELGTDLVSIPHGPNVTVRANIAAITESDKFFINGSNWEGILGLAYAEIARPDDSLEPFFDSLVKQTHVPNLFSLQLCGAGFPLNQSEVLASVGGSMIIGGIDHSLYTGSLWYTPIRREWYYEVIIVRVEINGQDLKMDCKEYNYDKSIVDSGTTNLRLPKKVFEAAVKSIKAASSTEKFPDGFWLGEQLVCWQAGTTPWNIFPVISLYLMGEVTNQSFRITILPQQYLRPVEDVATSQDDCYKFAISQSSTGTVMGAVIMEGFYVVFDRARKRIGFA
UniProt Q9Y5Z0, 63-518 limits assumed: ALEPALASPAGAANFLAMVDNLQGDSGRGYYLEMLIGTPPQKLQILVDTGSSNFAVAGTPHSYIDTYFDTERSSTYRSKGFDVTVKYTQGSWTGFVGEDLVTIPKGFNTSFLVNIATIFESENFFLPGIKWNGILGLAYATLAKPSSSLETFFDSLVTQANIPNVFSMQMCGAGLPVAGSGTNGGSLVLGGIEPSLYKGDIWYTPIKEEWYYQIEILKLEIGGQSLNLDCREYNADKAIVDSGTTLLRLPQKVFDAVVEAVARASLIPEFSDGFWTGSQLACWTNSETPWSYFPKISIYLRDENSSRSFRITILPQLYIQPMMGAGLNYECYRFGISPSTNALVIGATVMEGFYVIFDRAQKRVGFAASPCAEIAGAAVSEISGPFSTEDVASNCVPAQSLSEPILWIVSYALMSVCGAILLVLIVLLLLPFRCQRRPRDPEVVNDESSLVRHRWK

| SMILES | Ki [nM] |
| --- | --- |
| COCCN=[S@@]1(=O)C[C@@](C)(c2cc(NC(=O)c3ccc(Cl)cn3)ccc2F)NC(=N)C1(C)C | 4 |
| CC1(C)C(=N)N[C@](C)(c2cc(NC(=O)c3ccc(Cl)cn3)ccc2F)C[S@]1(=O)=NCCF | 3 |
| CN=[S@]1(=O)C[C@@](C)(c2cc(NC(=O)c3ccc(Cl)cn3)ccc2F)NC(=N)C1(C)C | 8 |
| CN=[S@@]1(=O)C[C@@](C)(c2cc(NC(=O)c3ccc(OC)cn3)ccc2F)NC(=N)C1(C)C | 11 |
| CC1(C)C(=N)N[C@](C)(c2cc(NC(=O)c3ccc(Cl)cn3)ccc2F)C[S@@]1(=O)=NCCF | 3 |
| CCN=[S@@]1(=O)C[C@@](C)(c2cc(NC(=O)c3ccc(C#N)cn3)ccc2F)NC(=N)C1(C)C | 4 |
| CC1(C)C(=N)N[C@](C)(c2cc(NC(=O)c3ccc(Cl)cn3)ccc2F)C[S@]1(=O)=NCC1CC1 | 3 |
| CN=[S@]1(=O)C[C@@](C)(c2cc(NC(=O)COC)ccc2F)NC(=N)C1(C)C | 167 |
| CN=[S@@]1(=O)C[C@@](C)(c2cc(NC(=O)COC)ccc2F)NC(=N)C1(C)C | 228 |
| CCN=[S@]1(=O)C[C@@](C)(c2cc(NC(=O)c3ccc(Cl)cn3)ccc2F)NC(=N)C1(C)C | 7 |
| COCCN=[S@]1(=O)C[C@@](C)(c2cc(NC(=O)c3ccc(Cl)cn3)ccc2F)NC(=N)C1(C)C | 3 |
| CN=[S@]1(=O)C[C@@](C)(c2cc(NC(=O)c3cnc(OC)cn3)ccc2F)NC(=N)C1(C)C | 6 |
| CN=[S@@]1(=O)C[C@@](C)(c2cc(NC(=O)c3cnc(OC)cn3)ccc2F)NC(=N)C1(C)C | 14 |
| CCN=[S@@]1(=O)C[C@@](C)(c2cc(NC(=O)c3ccc(Cl)cn3)ccc2F)NC(=N)C1(C)C | 4 |
| CN=[S@@]1(=O)C[C@@](C)(c2cc(NC(=O)c3ccc(F)cn3)ccc2F)NC(=N)C1(C)C | 10 |
| CN=[S@@]1(=O)C[C@@](C)(c2cc(NC(=O)c3ccc(Cl)cn3)ccc2F)NC(=N)C1(C)C | 3 |
| CC1(C)C(=N)N[C@](C)(c2cc(NC(=O)c3ccc(Cl)cn3)ccc2F)C[S@@]1(=O)=NCC1CC1 | 4 |
| CCN=[S@@]1(=O)C[C@@](C)(c2cc(NC(=O)c3ccc(F)cn3)ccc2F)NC(=N)C1(C)C | 17 |
| CN=[S@]1(=O)C[C@@](C)(c2cc(NC(=O)c3ccc(F)cn3)ccc2F)NC(=N)C1(C)C | 21 |

These molecules were tested against purified human autoBACE-2 (Homo sapiens, UniProt Q9Y5Z0) (assay: BACE-2 Assay (BACE-HTRF assay)). Conditions: read-out: BACE 2 Ki; Ki calculated from IC50 using the Cheng-Prusoff equation; QSY7-EISEVNLDAEFC-Eu-amide substrate, pH 5.0.
Type: biochemical

| SMILES | Ki [nM] |
| --- | --- |
| COCCN=[S@@]1(=O)C[C@@](C)(c2cc(NC(=O)c3ccc(Cl)cn3)ccc2F)NC(=N)C1(C)C | 2 |
| CC1(C)C(=N)N[C@](C)(c2cc(NC(=O)c3ccc(Cl)cn3)ccc2F)C[S@]1(=O)=NCCF | 2 |
| CN=[S@]1(=O)C[C@@](C)(c2cc(NC(=O)c3ccc(Cl)cn3)ccc2F)NC(=N)C1(C)C | 3 |
| CN=[S@@]1(=O)C[C@@](C)(c2cc(NC(=O)c3ccc(OC)cn3)ccc2F)NC(=N)C1(C)C | 5 |
| CC1(C)C(=N)N[C@](C)(c2cc(NC(=O)c3ccc(Cl)cn3)ccc2F)C[S@@]1(=O)=NCCF | 1 |
| CCN=[S@@]1(=O)C[C@@](C)(c2cc(NC(=O)c3ccc(C#N)cn3)ccc2F)NC(=N)C1(C)C | 5 |
| CC1(C)C(=N)N[C@](C)(c2cc(NC(=O)c3ccc(Cl)cn3)ccc2F)C[S@]1(=O)=NCC1CC1 | 1 |
| CN=[S@]1(=O)C[C@@](C)(c2cc(NC(=O)COC)ccc2F)NC(=N)C1(C)C | 10 |
| CN=[S@@]1(=O)C[C@@](C)(c2cc(NC(=O)COC)ccc2F)NC(=N)C1(C)C | 36 |
| CCN=[S@]1(=O)C[C@@](C)(c2cc(NC(=O)c3ccc(Cl)cn3)ccc2F)NC(=N)C1(C)C | 5 |
| COCCN=[S@]1(=O)C[C@@](C)(c2cc(NC(=O)c3ccc(Cl)cn3)ccc2F)NC(=N)C1(C)C | 1 |
| CN=[S@]1(=O)C[C@@](C)(c2cc(NC(=O)c3cnc(OC)cn3)ccc2F)NC(=N)C1(C)C | 12 |
| CN=[S@@]1(=O)C[C@@](C)(c2cc(NC(=O)c3cnc(OC)cn3)ccc2F)NC(=N)C1(C)C | 32 |
| CCN=[S@@]1(=O)C[C@@](C)(c2cc(NC(=O)c3ccc(Cl)cn3)ccc2F)NC(=N)C1(C)C | 1 |
| CN=[S@@]1(=O)C[C@@](C)(c2cc(NC(=O)c3ccc(F)cn3)ccc2F)NC(=N)C1(C)C | 2 |
| CN=[S@@]1(=O)C[C@@](C)(c2cc(NC(=O)c3ccc(Cl)cn3)ccc2F)NC(=N)C1(C)C | 1 |
| CC1(C)C(=N)N[C@](C)(c2cc(NC(=O)c3ccc(Cl)cn3)ccc2F)C[S@@]1(=O)=NCC1CC1 | 3 |
| CCN=[S@@]1(=O)C[C@@](C)(c2cc(NC(=O)c3ccc(F)cn3)ccc2F)NC(=N)C1(C)C | 3 |
| CN=[S@]1(=O)C[C@@](C)(c2cc(NC(=O)c3ccc(F)cn3)ccc2F)NC(=N)C1(C)C | 6 |
